Patent US12570711B2, “Platforms for co-stimulation, novel car designs and other enhancements for adoptive cellular therapy” (Angeles Therapeutics, Inc., priority 2017, dated 2026)

T1: CD19 (Homo sapiens, UniProt P15391)
T1 sequence (P15391 20-556): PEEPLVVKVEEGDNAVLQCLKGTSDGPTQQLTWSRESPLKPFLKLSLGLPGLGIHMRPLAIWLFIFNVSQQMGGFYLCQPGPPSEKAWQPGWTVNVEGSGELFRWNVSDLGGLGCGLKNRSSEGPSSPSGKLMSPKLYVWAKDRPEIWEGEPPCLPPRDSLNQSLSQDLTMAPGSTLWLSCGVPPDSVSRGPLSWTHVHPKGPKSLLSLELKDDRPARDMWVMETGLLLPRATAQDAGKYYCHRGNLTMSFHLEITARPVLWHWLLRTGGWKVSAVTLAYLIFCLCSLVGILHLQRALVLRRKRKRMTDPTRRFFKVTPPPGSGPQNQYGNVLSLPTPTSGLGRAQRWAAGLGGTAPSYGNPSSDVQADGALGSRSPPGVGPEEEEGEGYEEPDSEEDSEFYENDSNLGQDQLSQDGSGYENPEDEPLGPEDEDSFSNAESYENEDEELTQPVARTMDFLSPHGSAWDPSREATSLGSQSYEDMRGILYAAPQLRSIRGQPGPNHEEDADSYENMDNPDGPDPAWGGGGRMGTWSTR


Key:
RAJI cells = assay: AP20187-induced proliferation and cytokine production of CAR-T cells exposed to RAJI cells; format: cell-based, human; settings: AP20187 100 nM; exposed to CD19 expressing RAJI cells
Experimental: The experiments described in the preceding paragraphs are repeated by using CAR constructs in which the hNEMO-K277A accessory module is replaced by accessory modules encoding FKBPx2-hNEMO, FKBPx2-hNEMO-K277A (SEQ ID NO: 1006), FKBPx2-hNEMO-L753(251) (SEQ ID NO: 1007), FKBPx2-hNEMO-L600(200) (SEQ ID NO: 1008), IKK2-delta-SCD-FKBPv36x2 (SEQ ID NO: 7782), IKK1-delta-SCD-FKBPv36x2 (SEQ ID NO: 7781) and FKBPx2-RIP-ID (SEQ ID NO: 1009). T cells expressing the CAR and these accessory modules are tested using in vitro assays in the absence and presence of the dimerizer AP20187 (100 nM). […] In an in vivo experiment, NSG mice (n=12 per group) are xenografted with 2 million RAJI-Luc cells by tail vein injection and 3 days later administered 5 million T cells expressing a CD19-CAR and coexpressing the FKBPx2-hNEMO, FKBPx2-hNEMO-K277A (SEQ ID NO: 1006), FKBPx2-hNEMO-L753(251) (SEQ ID NO: 1007), FKBPx2-hNEMO-L600(200) (SEQ ID NO: 1008) and FKBPx2-RIP-ID (SEQ ID NO: 1009) modules. Half the mice in each group (n =6) are administered 40 μg of AP20187 every day for 10 days by intraperitoneal injection as described previously (Chinnery et al, J Immunol 2009; 182:2738-2744).

CD3+ve T cells = assay: Proliferation of T cells after lentiviral expression of NEMO mutants (cell numbers, long term culture); format: cell-based, human; settings: for ability of T cells to proliferate long term in culture: expression in T cells
Text: Thus, the disclosure provides composition and methods to enhance the survival, proliferation, cytokine secretion, delay exhaustion and senescence and improve the in vivo expansion, persistence and anti-tumor activity of an immune cell, e.g., T cell, e.g., CAR-T or TCR-T or SIR-T cell, and/or an immune cell expressing a non-naturally occurring immune receptor, via selective or preferential (i.e., without AKT activation) activation of the NF-κB pathway in the immune cell.
Buffy coat cells were obtained from healthy de-identified adult donors from the Blood Bank at Children Hospital of Los Angeles and used to isolate peripheral blood mononuclear cells (PBMC) by Ficoll-Hypaque gradient centrifugation. PBMC were either used as such or used to isolate T cells using CD3 magnetic microbeads (Miltenyi Biotech) and following the manufacturer's instructions. PBMC or isolated T cells were re-suspended in XVIVO medium (Lonza) supplanted with 10 ng/ml CD3 antibody, 10 ng/ml CD28 antibody and 100 IU recombinant human-IL2. Cells were cultured at 37° C., in a 5% CO2 humidified incubator. Cells were activated in the above medium for 1 day prior to infection with lentiviral vectors. In general, primary cells (e.g. T cells) were infected in the morning using spin-infection (1800 rpm for 90 minutes at 37° C. with 300 μl of concentrated virus that had been re-suspended in XVIVO medium in the presence of 8 μg/ml of Polybrene® (Sigma, Catalog no. H9268). The media was changed in the evening and the infection was repeated for two more days for a total of 3 infections. After the 3rd infection, the cells were pelleted and resuspended in fresh XVIVO media containing 10 ng/ml CD3 antibody, 10 ng/ml CD28 antibody and 100 IU recombinant human-IL2 and supplemented with respective antibiotics (if indicated) and place in the cell culture flask for selection, unless indicated otherwise. Cells were cultured in the above medium for 10-15 days in case no drug selection was used and for 20-30 days in case drug-selection was used. In cases, where cells were infected with a lentivirus expressing EGFP, they were expanded without drug-selection or flow-sorted to enrich for EGFP-expressing cells. For infection of cancer cell lines, approximately 500,000 cells were infected with 2 ml of the un-concentrated viral supernatant in a total volume of 3 ml with Polybrene® (Sigma, Catalog no. H9268). Then next morning, the cells were pelleted and resuspended in the media with respective antibiotics and place in the cell culture flask for selection.
The mouse NEMO-K270A (SEQ ID NO: 992) is known to activate NF-κB constitutively. […] Cells were cultured at 37° C., in a 5% CO2 humidified incubator, and after 1 day infected with a lentiviral vector (pLENTI-EGFP-Blasticidin) expressing EGFP and lentiviral vectors expressing mouse NEMO-K270A mutants (pLENTI-mNEMO-K270A-FLAG-Blasticidin and pLENTI-mNEMO-K270A-HA-Blasticidin), or mouse NEMO-wt (pLENTI-mNEMO-FLAG-Blasticidin). The sequences of mNEMO-K270A and mNEMO-wt are provided in SEQ ID NOs: 992 and 991, respectively. Approximately 1 day post-infection, cells were selected with blasticidin and cell numbers calculated periodically.

NF-κB = assay: p65 nuclear translocation, nuclear NF-κB and AP1 binding activity in transduced bone marrow-derived dendritic cells; format: cell-based, mouse; settings: for p65 (RelA) localisation in DCs: level similar to LPS-treated DCs, not in untreated or control vector DCs
Experimental: Transduction of DCs and flow cytometry. Murine bone marrow-derived Dendritic cells (DCs) are prepared as previously described. Immature DCs are transduced on day 4 at an MOT of 20 with lentiviral vectors as described (Rowe H M et al, Molecular Therapy, 13, 2, 2006) and fed every 4 days with fresh medium containing granulocyte-macrophage colony-stimulating factor (50 ng/ml; from Peprotech). On day 5 posttransduction, DCs are harvested, washed, and blocked for Fc receptors before surface staining for maturation markers with the following biotin-conjugated Abs: anti-CD11c, anti-CD86, and anti-I-Ab (MHC class II) (all from BD Pharmingen); anti-CD40 (from Serotec); and anti-CD80, anti-ICAM-1, and anti-Kb (MHC class I) (all from eBioscience). A hamster isotype control Ab (biotin conjugated) is purchased from BD Pharmingen. Abs are then labeled with streptavidin RPE Cy-5 2o reagent (DakoCytomation) before flow cytometry. Lipopolysaccharide (LPS) (50 ng/ml) (Sigma) is added to untransduced DCs and left overnight as a positive control for maturation. Zymosan A (10 μg/ml) treatment (for 30 min at 37° C.) is used as a control for ERK activation.
Mouse BM-derived Dendritic cells (DCs) are infected with the lentivectors encoding human NEMO-K277A, human NEMO-K277A-deltaV249-K255, mouse NEMO-K270A and IKK2-S177E-S181E either alone or in combination with Ii-OVA.

BM-derived DCs = assay: IL-12p70 and TNF-α ELISA of dendritic cell culture supernatants; format: cell-based, mouse; settings: culture of transduced DCs
Experimental: ELISA. Culture supernatants are harvested from DCs plated at 5×10^5 cells per well (in 1.5 ml). IL-12p70 and tumor necrosis factor alpha (TNF-α) are detected by sandwich enzyme-linked immunosorbent assay (ELISA), using kits from eBioscience according to the manufacturer's guidelines.
After transduction of BM-derived DCs with human NEMO-K277A-, human NEMO-K277A-deltaV249-K255-, mouse NEMO-K270A- and IKK2-S177E-S181E, maturation markers on the transduced or nontransduced cells are analyzed.

CD19 = biological target: T1, CD19; assay: CAR-T cell in vitro and in vivo assay panel (IL2 production, proliferation, exhaustion, in vivo expansion, anti-tumor activity); set-up: endogenous in cells; host or cells: RAJI cells in vitro; Nalm-6-Luc cells xenografted in NSG mice

Molecule	proliferation and cytokine production of CAR-T cells on addition of AP20187 (RAJI cells)	ability of T cells to proliferate long term in culture (CD3+ve T cells)	activation of the MAPK pathway (nuclear AP1 binding activity) (NF-κB)	nuclear NF-κB binding activity in transduced DCs (NF-κB)	p65 (RelA) localisation in DCs (NF-κB)	secretion of IL-12p70 and TNF-α (BM-derived DCs)	cytokine production, proliferation, in vivo expansion and anti-tumor activity of CAR-T cells (CD19)	proliferation of infected T cells (CD3+ve T cells; lentiviral infection, blasticidin selection, compared to EGFP or mouse NEMO-wt)
FKBPx2-RIP-ID: RIP-ID fused to FKBPx2 dimerizer domain, accessory module	induce the proliferation and cytokine production							
IKK1-delta-SCD-FKBPv36x2: IKK1 fusion with FKBPv36x2 switch domain, accessory module	induce the proliferation and cytokine production							
IKK2-S177E-S181E: constitutive active mutant of IKKβ/IKK2		extends their ability to proliferate long term in culture without undergoing senescence	no affect on the activation of the MAPK pathway	Increased nuclear NF-κB binding activity	nuclear translocation of p65 (RelA)	upregulated	increased cytokine production, proliferation, in vivo expansion and anti-tumor activity	
IKK2-delta-SCD-FKBPv36x2: IKK2 fusion with FKBPv36x2 switch domain, accessory module	induce the proliferation and cytokine production							
mNEMO-K270A: mouse NEMO-K270A mutant, known to activate NF-κB constitutively (protein) MNKHPWKNQLSETVQPSGGPAEDQDMLGEESSLGKPAMLHLPSEQGTPETLQRCLEENQELRDAIRQSNQMLRERCEELLHFQVSQREEKEFLMCKFQEARKLVERLSLEKLDLRSQREQALKELEQLKKCQQQMAEDKASVKAQVTSLLGELQESQSRLEAATKDRQALEGRIRAVSEQVRQLESEREVLQQQHSVQVDQLRMQNQSVEAALRMERQAASEEKRKLAQLQAAYHQLFQDYDSHIKSSKGMQLEDLRQQLQQAEEALVAAQELIDKLKEEAEQHKIVMETVPVLKAQADIYKADFQAERHAREKLVEKKEYLQEQLEQLQREFNKLKVGCHESARIEDMRKRHVETPQPPLLPAPAHHSFHLALSNQRRSPPEEPPDFCCPKCQYQAPDMDTLQIHVMECIE		extends their ability to proliferate long term in culture without undergoing senescence	no affect on the activation of the MAPK pathway	Increased nuclear NF-κB binding activity	nuclear translocation of p65 (RelA)	upregulated		proliferate more vigorously
